Measurements reported in PubChem BioAssay AID1259376 (The Scripps Research Institute Molecular Screening Center, 2018).
The list shows a part of the results, in another mix than the full data. Active and inactive are the calls of the source.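 Rule for the calls: active = inhibition above a cutoff derived from the DMSO control wells (cut at about 30% in these data); inactive = the rest.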

Assay: bead signal artefacts at single dose – biochemical, AlphaScreen, triplicate, counter-screen for MITF inhibitor project (AID 1259376)
Conditions: LysRS AlphaScreen counterscreen, signal interference, at 2.6 µM, hits give high values

Question: For CN(C)CCOC(=O)C(O)(c1ccccc1)C1CCCCC1 (stereo not drawn), which inhibition is on record?
Answer: inactive: -4.77%

Question: With CCOP(C)(=S)SCN(CC(=O)O)C(=O)OC (stereo not drawn) as the compound, how does the inhibition read?
Answer: inactive: 7.49%

Question: Which inhibition does the source give for O=[N+]([O-])c1cc2[nH]c3cc([N+](=O)[O-])c([N+](=O)[O-])cc3c2cc1[N+](=O)[O-] here?
Answer: inactive: -13.1%
